# According to ChEMBL document CHEMBL1138225, “Synthesis and structure-activity relationships of 3,8-diazabicyclo[4.2.0]octane ligands, potent nicotinic acetylcholine receptor agonists” (J Med Chem, 2006):
# The chains behind the UniProt entries cited, without tags or fusion partners. Residues count along the entry.
# UniProt P30926, 22-498 limits assumed: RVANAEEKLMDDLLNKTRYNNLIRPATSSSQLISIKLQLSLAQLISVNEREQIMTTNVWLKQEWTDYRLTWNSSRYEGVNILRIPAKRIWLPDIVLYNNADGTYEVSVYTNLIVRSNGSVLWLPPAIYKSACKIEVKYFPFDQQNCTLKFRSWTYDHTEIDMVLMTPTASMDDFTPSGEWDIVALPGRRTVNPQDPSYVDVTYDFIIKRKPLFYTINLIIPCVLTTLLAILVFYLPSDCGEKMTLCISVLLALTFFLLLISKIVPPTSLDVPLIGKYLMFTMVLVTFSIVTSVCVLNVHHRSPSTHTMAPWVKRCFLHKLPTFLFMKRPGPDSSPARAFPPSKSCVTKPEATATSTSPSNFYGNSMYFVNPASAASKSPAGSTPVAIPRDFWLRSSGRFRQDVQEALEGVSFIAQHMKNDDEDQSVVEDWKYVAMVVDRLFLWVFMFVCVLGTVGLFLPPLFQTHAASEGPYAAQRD
# UniProt P32297, 32-505 limits assumed: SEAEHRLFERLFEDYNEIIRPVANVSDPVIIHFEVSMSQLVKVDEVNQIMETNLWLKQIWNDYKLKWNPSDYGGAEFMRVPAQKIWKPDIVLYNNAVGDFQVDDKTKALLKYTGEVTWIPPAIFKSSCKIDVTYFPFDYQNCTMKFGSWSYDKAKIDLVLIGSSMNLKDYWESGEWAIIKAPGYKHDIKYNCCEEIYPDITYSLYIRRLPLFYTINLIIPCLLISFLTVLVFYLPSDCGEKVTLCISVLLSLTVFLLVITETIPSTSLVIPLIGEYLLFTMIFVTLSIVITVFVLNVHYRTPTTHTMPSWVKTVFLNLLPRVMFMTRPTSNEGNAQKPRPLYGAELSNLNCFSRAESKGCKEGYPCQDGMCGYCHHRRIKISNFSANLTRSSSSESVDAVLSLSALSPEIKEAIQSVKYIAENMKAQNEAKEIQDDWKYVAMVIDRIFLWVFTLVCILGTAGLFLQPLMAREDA
# UniProt P09483, 31-630 limits assumed: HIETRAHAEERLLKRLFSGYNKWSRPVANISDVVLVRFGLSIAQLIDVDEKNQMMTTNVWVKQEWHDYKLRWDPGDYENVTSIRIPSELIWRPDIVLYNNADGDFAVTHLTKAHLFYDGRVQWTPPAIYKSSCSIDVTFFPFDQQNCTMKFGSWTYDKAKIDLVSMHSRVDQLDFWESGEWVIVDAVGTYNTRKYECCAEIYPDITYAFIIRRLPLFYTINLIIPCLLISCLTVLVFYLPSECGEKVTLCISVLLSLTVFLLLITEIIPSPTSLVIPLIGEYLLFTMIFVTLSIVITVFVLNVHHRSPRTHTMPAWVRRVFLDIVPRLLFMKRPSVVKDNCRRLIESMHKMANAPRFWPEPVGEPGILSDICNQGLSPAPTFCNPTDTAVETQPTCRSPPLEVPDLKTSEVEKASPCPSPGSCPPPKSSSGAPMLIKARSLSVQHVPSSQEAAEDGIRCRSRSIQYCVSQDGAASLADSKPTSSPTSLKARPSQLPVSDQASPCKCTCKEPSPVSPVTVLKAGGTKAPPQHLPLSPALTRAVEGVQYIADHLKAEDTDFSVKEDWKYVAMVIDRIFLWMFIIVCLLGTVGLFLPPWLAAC
# UniProt P12390, 25-500 limits assumed: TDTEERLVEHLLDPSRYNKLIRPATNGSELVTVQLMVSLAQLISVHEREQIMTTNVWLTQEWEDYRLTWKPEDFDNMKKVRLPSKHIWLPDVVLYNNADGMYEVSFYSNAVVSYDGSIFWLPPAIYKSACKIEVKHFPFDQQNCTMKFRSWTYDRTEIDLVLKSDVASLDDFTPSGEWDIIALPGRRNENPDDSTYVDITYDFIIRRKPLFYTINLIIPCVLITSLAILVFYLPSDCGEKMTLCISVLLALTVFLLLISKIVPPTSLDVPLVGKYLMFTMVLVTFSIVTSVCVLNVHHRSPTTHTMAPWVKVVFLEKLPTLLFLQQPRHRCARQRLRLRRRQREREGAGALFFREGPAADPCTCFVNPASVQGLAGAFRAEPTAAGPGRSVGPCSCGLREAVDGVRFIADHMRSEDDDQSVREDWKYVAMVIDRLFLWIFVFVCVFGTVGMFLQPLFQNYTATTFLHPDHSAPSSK
# UniProt P17787, 26-502 limits assumed: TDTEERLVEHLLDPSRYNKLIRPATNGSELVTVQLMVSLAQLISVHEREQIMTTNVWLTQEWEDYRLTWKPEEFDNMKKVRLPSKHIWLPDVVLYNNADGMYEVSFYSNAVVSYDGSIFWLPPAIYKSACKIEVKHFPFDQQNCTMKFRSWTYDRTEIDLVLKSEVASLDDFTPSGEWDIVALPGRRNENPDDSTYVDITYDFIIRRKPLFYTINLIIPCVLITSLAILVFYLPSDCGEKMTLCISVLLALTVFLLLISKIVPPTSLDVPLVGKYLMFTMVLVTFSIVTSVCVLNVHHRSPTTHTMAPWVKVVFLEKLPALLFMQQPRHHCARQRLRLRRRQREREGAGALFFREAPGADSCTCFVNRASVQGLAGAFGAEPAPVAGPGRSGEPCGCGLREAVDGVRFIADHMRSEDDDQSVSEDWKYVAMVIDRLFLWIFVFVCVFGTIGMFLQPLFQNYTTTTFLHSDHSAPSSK
# UniProt P43681, 27-627 limits assumed: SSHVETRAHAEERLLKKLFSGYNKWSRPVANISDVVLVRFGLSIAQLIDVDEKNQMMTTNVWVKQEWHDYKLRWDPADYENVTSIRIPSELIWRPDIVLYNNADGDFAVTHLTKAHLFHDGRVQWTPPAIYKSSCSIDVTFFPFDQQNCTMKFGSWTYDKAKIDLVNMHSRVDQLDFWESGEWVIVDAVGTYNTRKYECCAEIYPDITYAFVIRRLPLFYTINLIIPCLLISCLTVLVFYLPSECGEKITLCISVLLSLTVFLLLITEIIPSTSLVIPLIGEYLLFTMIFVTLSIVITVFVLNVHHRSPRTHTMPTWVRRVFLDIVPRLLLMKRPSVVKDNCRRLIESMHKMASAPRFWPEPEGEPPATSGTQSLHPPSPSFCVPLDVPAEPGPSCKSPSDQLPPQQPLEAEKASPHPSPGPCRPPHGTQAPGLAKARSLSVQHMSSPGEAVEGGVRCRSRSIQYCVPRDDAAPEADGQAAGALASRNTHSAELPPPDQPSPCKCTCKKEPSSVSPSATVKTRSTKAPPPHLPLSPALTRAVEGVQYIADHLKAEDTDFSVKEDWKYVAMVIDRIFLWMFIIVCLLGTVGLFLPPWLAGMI
# Key:
# [1] = target: Neuronal acetylcholine receptor; alpha3/beta4 (Homo sapiens, UniProt P30926+P32297); assay: Agonist activity at human alpha-3-beta-4 ACHR expressed in HEK293 cells assessed as change in intracellular calcium concentration by FLIPR
# [2] = target: Neuronal acetylcholine receptor; alpha4/beta2 (Rattus norvegicus, UniProt P09483+P12390); assay: Displacement of [3H]cytisine from alpha-4-beta-2 ACHR in rat brain homogenate; type: tissue-based
# [3] = target: Neuronal acetylcholine receptor; alpha4/beta2 (Homo sapiens, UniProt P17787+P43681); assay: Agonist activity at human alpha4beta2 ACHR expressed in HEK293 cells assessed as change in intracellular calcium concentration by FLIPR
structure (smiles),measurement,setting,value
N/C(=N/O)c1cncc(N2CC[C@@H]3CN[C@@H]3C2)c1,EC50,[1],5700 nM
same,Ki,[2],0.062 nM
same,EC50,[3],180 nM
